Settings: deionized water, approximately 22° C., room temperature

CC(C)OC(=O)C(C)NP(=O)(COC(C)Cn1cnc2c(N)ncnc21)Oc1ccccc1.O=S(=O)(O)c1ccc2ccccc2c1 (stereo not shown) [TAF Napsylate, Tenofovir Alafenamide Napsylate]
Solubility: 7000 µg/mL

Reference: patent publication US12202849B2, “Crystalline forms of tenofovir alafenamide” (Gilead Sciences, Inc., priority 2017, dated 2025)
